Here are results for two molecules from ChEMBL document CHEMBL1133869, “Synthesis and biological activity of L-tyrosine-based PPARgamma agonists with reduced molecular weight” (Bioorg Med Chem Lett, 2001).

For assay [1], the target named is T1, Peroxisome proliferator-activated receptor alpha (Homo sapiens, UniProt Q07869).
T1 sequence (Q07869 whole entry): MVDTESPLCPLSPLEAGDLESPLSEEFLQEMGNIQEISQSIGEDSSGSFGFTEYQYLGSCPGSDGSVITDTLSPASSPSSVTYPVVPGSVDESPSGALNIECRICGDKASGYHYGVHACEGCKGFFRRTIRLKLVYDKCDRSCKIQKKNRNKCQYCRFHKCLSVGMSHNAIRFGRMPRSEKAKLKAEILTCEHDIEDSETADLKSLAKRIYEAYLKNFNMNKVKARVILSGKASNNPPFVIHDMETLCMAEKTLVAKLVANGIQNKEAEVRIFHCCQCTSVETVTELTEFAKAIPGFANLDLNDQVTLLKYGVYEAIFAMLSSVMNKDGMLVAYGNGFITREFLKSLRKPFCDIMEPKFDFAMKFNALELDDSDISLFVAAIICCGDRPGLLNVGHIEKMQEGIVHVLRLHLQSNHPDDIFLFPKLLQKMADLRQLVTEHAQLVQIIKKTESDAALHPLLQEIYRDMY
Nature of the assay: Maximal reporter activity against human Peroxisome proliferator activated receptor alpha Gal4 chimeric in transiently transfected CV-1 cells by functional assay. The format is cell-based.

The target of assay [2] is T1, Peroxisome proliferator-activated receptor alpha.

Regarding `CCCN[C@@H](Cc1ccc(OCCc2nc(-c3ccccc3)oc2C)cc1)C(=O)O`, a half-maximal response in assay [1] (EC50) required 0.83 µM. Further, the Ki in assay [2] came out at 0.072 µM.
Turning to `Cc1oc(-c2ccccc2)nc1CCOc1ccc(C[C@H](Nc2ncccn2)C(=O)O)cc1`, in assay [2], the Ki came out at 1.2 µM.
